The entries are a selection whose mix differs from that of the whole data set. The source made the active and inactive calls. The call rests on the fitted dose curve; in most records, active means well fitted activation curve with a large enough effect; inconclusive means small, poorly fitted or top-dose-only effect; inactive means flat fitted curve, though single readings scatter.
Target: Relaxin receptor 1 (Homo sapiens) (UniProt Q9HBX9)
Experiment: qHTS Assay for Agonists of the Relaxin Receptor RXFP1; further: nearly all actives have a fitted effect of over 60% in size
Conditions: HEK293T-RXFP1 cAMP TR-FRET, 30 min, percent of porcine relaxin response, buffer zero; at 57.5 µM (top of the series)
From the text: NIH Chemical Genomics Center [NCGC] NIH Molecular Libraries Probe Production Centers Network [MLPCN] MLPCN Grant: R03 MH085705-01A1 Assay Submitter (PI): Alexander Agoulnik NCGC Assay Overview: The relaxin hormone is involved in the variety of biological functions in normal tissues and diseases. The role of relaxin is well-established in female reproduction and parturition, mammary gland and endometrial development, maintenance of myometrial quiescence during pregnancy. Relaxin signaling through its G protein-coupled receptor (GPCR) RXFP1 results in ECM remodeling through regulation of collagen deposition, cell invasiveness, proliferation and overall tissue homeostasis. […] Recombinant human relaxin (rhRlx) is currently being tested in clinical trials as a protective agent in congestive heart failure, in treating severe preeclampsia, and as an anti-fibrotic agent in systemic sclerosis. Upon relaxin binding RXFP1 activation leads to the activation of adenylate cyclase (AC) via Gs. cAMP will activate PKA, which phosphorylates many signaling proteins. Thus, detection of cAMP increase is an easy and reliable indication of relaxin receptor activation. To screen for agonists of the relaxin receptor, a HEK293T cell line stably transfected with RXFP1 was used. RXFP1 activation was assayed by changes in cAMP levels as detected with a time-resolved fluorescence energy transfer (TR-FRET) cAMP detection kit.
NCGC Assay Protocol Summary: This is a cell-based assay for cAMP second messenger response to screen for agonists of the RXFP1 receptor. The assay was conducted in the presence of a PDE4 inhibitor (Ro 20174). The cells were lysed and the cAMP levels were measured with a TR-FRET cAMP kit. Presence of cAMP in the cell lysate disrupts binding between the cryptate-labeled anti-cAMP and d2-labeled cAMP pair, leading to a decrease in the TR-FRET signal. Data were normalized to the controls for basal activity (buffer only) and 100% activity (29 nM porcine relaxin). The EC50 values were determined from concentration-response data modeled with the standard Hill equation 1536-well assay protocol for the HEK293 RXFP1 cAMP assay: (1) Add 3 ul HEK293 RXFP1 cell culture. 2000 cells/well in DMEM/F12, 10% FBS, 1x Pen/Strep (dispensed offline with MultiDrop Combi). (2) Incubate 16-24 hr at 37C, 5% CO2. (3) Add 1 ul 400uM Ro20174 in DPBS, 0.05% BSA, 0.005% Tween 20. (3) Add 23 nl compounds in DMSO solution. Final concentration was 0.5 - 58 uM. (4) Incubate 30 min at 37C, 5% CO2. (5) Add 1 ul cAMP-d2 in lysis buffer (HTRF cAMP HiRange kit, CisBio). (6) Add 1 ul anti-cAMP antibody-cryptate in lysis buffer (HTRF cAMP HiRange kit, CisBio). (7) Incubate 30 min at room temperature. (6) Detect the assay plate in a ViewLux plate reader (PerkinElmer) with Ex=320 nm, Em1=615 nm and Em2=665 nm. Keywords: relaxin, RXFP1, RXFP2, G-protein coupled receptor, cAMP, agonist, high throughput screening, MLSMR, MLSCN, NIH Roadmap, qHTS and NCGC
On the % scale 0 is the no-effect control and ±100 the full control effect.

The chains behind the UniProt entries cited, without tags or fusion partners. Where a name states a change or a piece, a line headed by the entry shows the natural chain unless it says otherwise.
UniProt Q9HBX9: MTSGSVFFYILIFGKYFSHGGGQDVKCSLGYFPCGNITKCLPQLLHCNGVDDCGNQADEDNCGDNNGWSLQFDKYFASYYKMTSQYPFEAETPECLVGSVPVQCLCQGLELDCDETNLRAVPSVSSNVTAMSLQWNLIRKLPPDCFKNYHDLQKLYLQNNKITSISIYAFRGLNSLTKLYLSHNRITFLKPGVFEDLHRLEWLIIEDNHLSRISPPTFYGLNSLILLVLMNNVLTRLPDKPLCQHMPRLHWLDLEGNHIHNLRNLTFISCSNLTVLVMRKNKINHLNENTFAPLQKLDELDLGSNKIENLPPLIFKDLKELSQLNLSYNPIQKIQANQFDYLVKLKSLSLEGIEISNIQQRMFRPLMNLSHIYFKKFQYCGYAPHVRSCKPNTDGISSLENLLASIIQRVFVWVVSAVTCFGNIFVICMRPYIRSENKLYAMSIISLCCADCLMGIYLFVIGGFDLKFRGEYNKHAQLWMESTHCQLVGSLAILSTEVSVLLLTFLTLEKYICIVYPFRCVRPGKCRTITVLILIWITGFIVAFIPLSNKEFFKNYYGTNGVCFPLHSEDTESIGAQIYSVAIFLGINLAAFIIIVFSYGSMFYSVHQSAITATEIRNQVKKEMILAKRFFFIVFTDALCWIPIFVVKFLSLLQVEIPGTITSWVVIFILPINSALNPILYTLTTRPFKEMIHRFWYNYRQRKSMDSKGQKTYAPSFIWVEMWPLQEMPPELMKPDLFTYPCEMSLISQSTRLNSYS

SMILES	activation
Cc1ccc(NP(=O)(Oc2ccccc2)Oc2ccccc2)nc1	inactive: -3.6%
O=[N+]([O-])c1cc([N+](=O)[O-])c(CCNc2ccccc2)c([N+](=O)[O-])c1	inactive: -1.15%
CCc1nc2c(n1)c1c(non1O)c1c2no[n+]1[O-]	inactive: -0.172%
Nc1ccc([As](=O)(O)c2ccc(N)cc2)cc1	inactive: -1.26%
C[N+]1=C2C=CC=CC=C2SC12C([N+](=O)[O-])=CC([N+](=O)[O-])=C[C-]2[N+](=O)[O-] (stereo not given)	inactive: 18.9%
CCN(/C(=N/P(=O)(N1CCOCC1)N1CCOCC1)N1CCOCC1)c1ccc(OC)cc1	inactive: 2.83%
CC(C)=N/N=C(\N)N[N+](=O)[O-]	inactive: 1.08%
CN(C)C(=O)OCCc1n(C)cc[n+]1C	inactive: 1.12%
CC1CCN(C(=O)Oc2c(Cl)cc(Cl)c3cccnc23)CC1	inactive: 1.79%
COP1(=S)c2c(C)nn(CCC#N)c2N=C(c2ccc(F)cc2)N1C (stereo not given)	inactive: -0.182%
O=C(COc1ccccc1)OC1CN2CCC1CC2 (stereo not given)	inactive: -3.24%
O=C(Nc1ccncc1[N+](=O)[O-])c1ccc([N+](=O)[O-])cc1[N+](=O)[O-]	inactive: 12.9%
CCOC(=O)c1ccc(NC(=O)C(C)(CCl)SC)cc1 (stereo not given)	inactive: 1.3%
O=C(OC1CN2CCC1CC2)c1cccc([N+](=O)[O-])c1 (stereo not given)	inactive: -0.355%
CCC(C)N(CC(C)C)C(=S)SC(NC(C)=O)C(Cl)(Cl)Cl (stereo not given)	inactive: -1.02%
CCOC(=O)Nc1ccc([As](=O)(O)O)c(O)c1	inactive: -0.0294%
CCCCOc1ccc(C(=O)NCC2(N3CCCCC3)CCCCC2)cc1OC	inactive: 0.853%
Cc1cc(SC(NC(=O)c2ccccc2)C(Cl)(Cl)Cl)nc(C(C)C)n1 (stereo not given)	inactive: 2.28%
CCOC(=O)Nc1cccc([As](=O)(O)O)c1	inactive: 1.47%
O=[N+]([O-])c1ccc(Nc2ccc(Oc3ccc([N+](=O)[O-])cc3[N+](=O)[O-])cc2)c([N+](=O)[O-])c1	inactive: 2.61%

SMILES	activation
Cc1cc(SC(NC=O)C(Cl)(Cl)Cl)ncn1 (stereo not given)	inactive: 1.55%
O=P(Nc1ccccn1)(c1cccc2ccccc12)c1cccc2ccccc12	inactive: 2.32%
C[As](=O)(O)c1cccc(C(=O)O)c1	inactive: 5.66%
O=[As](O)(c1ccc(O)cc1)c1ccccc1O	inactive: 1.7%
COc1cc(C(=O)NCC2(N3CCOCC3)CCCCC2)ccc1OCC(C)C	inactive: 0.544%
Cc1ccc2nc3c(c(C)c2c1)CC(C(Cl)Cl)S3 (stereo not given)	inactive: 2.43%
Cc1ccc(OP(=O)(Nc2ccc([N+](=O)[O-])cn2)Oc2ccc(C)cc2)cc1	inactive: 1.23%
CC(C)c1ccc(OP(=O)(Nc2ccccn2)Oc2ccccc2F)cc1 (stereo not given)	inactive: 1.88%
ClCCSc1nnc(-c2cccnc2)o1	inactive: 2.7%
CCN(CC)C(=S)SC(NC=O)C(Cl)(Cl)Cl (stereo not given)	inactive: 0.716%
CC(C)NC(=O)NP(=O)(Oc1ccccc1)Oc1ccccc1	inactive: 0.584%
O=[N+]([O-])c1cc([N+](=O)[O-])c(-c2ccn[nH]2)s1	inactive: 1.93%
O=C(OC1CN2CCC1CC2)C12CC3CC(CC(C3)C1)C2 (stereo not given)	inactive: -0.883%
Cc1cc(=O)[nH]c(N[N+](=O)[O-])n1	inactive: -1.12%
Cc1c2c(nc3ccccc13)SC(C(Cl)Cl)C2 (stereo not given)	inactive: 2.86%
COc1ccc2nc(NP(=O)(c3ccccc3)c3ccccc3)sc2c1	inactive: 2.48%
COc1cc(I)ccc1[As](=O)(O)O	inactive: 0.584%
COc1ccc(N/C(=N/P(=O)(N2CCOCC2)N2CCOCC2)N2CCOCC2)cc1	inactive: -1.03%
COc1cc(C(=O)NCC2(N3CCOCC3)CCCCC2)cc(Cl)c1OC(C)C	inactive: -1.65%
O=[As](O)(O)c1cccnc1	inactive: 1.16%
